The list shows a part of the results, in another mix than the full data. Activity calls are given as the source filed them.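 The calls were made as follows: active = percentage of spot-positive cells more than 3 SD above its plate mean, without a fluorescence outlier flag or 80% toxicity; inconclusive = no clear call, values can overlap the other calls; inactive = the rest.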

A short description of this test: GFP-LC3 puncta formation changes – imaging, high-content, MEF GFP-LC3, primary screen (AID 463193).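 Also: spot-positive cell cutoff set from DMSO-treated cells.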 To be noted: autophagy, at 10 µM, active compounds read high.
For the molecule `CP(=O)(Nc1cccc(Br)c1)Oc1ccccc1` (stereo unspecified), the % cells with GFP-LC3 spots was inactive: 13.2%.

The values are drawn from PubChem BioAssay AID463193 (University of Pittsburgh Molecular Library Screening Center, 2010).
